The results in this text go back to patent US20230233577A1, “17Beta-ESTRADIOL/VITAMIN C MOLECULAR COMPLEX, PREPARATION METHOD, AND USE THEREOF” (ZHEJIANG MEDICINE CO., LTD.XINCHANG PHARMACEUTICAL FACTORY, priority 2020, published 2023).

The test system of this series is ovariectomized female mice. Conditions: mouse, in vivo.

Consider conjugated estrogens, for which the “Lesions of uterine glands (in words)” value is “could cause lesions of uterine glands”; the “Thickening of endometria and oviduct walls (in words)” value is “could induce the thickening of endometria and oviduct walls”. Also, where the note is “0.104 mg/kg/day”, the “Thickness of endometrium (pathological section)” value worked out at 27.80 μm, the “Thickness of oviduct wall (pathological section)” value amounted to 75.01 μm and the “Uterine gland pathology (in words)” value is given as “the density of a tissue around the uterine gland is significantly reduced”.
